Earlier results on 1 molecule are cited in patent US10265309B2.

The structures appear in SMILES notation. Only a part of the results on these compounds is given; other tests are left out.

The conditions of the data set: oral administration, first pass effect metabolism.

For `CCC(=O)N(c1ccccc1)C1CCN(CCc2ccccc2)CC1`, the “Fraction of orally administered fentanyl not absorbed” value is reported as at least 50%.
